Legend:
[1] = biological target: T1, GMIIb (Golgi α-mannosidase) (Drosophila melanogaster, UniProt Q9VF33); conditions: cited from earlier work
T1 sequence (Q9VF33 31-1249): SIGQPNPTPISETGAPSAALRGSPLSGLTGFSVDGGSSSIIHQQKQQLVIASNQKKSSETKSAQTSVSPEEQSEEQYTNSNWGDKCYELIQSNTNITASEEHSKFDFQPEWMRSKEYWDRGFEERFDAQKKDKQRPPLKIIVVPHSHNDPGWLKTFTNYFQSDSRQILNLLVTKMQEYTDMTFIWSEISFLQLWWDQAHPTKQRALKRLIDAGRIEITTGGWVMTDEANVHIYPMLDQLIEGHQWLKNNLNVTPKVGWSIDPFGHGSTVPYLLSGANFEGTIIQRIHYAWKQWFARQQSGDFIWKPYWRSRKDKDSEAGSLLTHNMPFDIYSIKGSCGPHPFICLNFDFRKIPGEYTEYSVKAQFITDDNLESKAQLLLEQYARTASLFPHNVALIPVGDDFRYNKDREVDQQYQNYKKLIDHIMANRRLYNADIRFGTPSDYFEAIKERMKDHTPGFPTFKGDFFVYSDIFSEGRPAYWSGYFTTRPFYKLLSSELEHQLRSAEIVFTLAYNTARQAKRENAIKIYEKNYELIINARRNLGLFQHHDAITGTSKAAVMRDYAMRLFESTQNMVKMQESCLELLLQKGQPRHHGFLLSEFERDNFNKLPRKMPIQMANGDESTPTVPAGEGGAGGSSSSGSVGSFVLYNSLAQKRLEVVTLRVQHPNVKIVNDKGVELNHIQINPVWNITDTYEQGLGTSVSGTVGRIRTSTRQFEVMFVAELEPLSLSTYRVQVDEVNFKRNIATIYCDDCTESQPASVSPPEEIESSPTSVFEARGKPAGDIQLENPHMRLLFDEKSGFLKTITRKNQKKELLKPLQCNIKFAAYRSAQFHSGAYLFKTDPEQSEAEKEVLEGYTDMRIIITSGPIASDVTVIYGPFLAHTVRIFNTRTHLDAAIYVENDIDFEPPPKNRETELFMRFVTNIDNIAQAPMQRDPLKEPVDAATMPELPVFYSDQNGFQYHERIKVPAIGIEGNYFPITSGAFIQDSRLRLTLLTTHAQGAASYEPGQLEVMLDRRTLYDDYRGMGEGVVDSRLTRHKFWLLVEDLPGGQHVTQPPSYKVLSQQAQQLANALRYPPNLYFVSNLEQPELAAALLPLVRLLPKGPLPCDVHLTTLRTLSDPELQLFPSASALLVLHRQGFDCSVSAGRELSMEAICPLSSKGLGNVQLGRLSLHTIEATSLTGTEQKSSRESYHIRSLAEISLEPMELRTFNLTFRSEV

[2] = biological target: T1, GMIIb (Golgi α-mannosidase); assay: α-mannosidase inhibition assay with pNP-Man, GMIIb; type: biochemical; conditions: selectivity index
[3] = biological target: T2, AMAN-2 (Golgi α-mannosidase) (Caenorhabditis elegans, UniProt Q2PJ74); assay: α-mannosidase inhibition assay with pNP-Man, AMAN-2; type: biochemical
T2 sequence (Q2PJ74 27-1145): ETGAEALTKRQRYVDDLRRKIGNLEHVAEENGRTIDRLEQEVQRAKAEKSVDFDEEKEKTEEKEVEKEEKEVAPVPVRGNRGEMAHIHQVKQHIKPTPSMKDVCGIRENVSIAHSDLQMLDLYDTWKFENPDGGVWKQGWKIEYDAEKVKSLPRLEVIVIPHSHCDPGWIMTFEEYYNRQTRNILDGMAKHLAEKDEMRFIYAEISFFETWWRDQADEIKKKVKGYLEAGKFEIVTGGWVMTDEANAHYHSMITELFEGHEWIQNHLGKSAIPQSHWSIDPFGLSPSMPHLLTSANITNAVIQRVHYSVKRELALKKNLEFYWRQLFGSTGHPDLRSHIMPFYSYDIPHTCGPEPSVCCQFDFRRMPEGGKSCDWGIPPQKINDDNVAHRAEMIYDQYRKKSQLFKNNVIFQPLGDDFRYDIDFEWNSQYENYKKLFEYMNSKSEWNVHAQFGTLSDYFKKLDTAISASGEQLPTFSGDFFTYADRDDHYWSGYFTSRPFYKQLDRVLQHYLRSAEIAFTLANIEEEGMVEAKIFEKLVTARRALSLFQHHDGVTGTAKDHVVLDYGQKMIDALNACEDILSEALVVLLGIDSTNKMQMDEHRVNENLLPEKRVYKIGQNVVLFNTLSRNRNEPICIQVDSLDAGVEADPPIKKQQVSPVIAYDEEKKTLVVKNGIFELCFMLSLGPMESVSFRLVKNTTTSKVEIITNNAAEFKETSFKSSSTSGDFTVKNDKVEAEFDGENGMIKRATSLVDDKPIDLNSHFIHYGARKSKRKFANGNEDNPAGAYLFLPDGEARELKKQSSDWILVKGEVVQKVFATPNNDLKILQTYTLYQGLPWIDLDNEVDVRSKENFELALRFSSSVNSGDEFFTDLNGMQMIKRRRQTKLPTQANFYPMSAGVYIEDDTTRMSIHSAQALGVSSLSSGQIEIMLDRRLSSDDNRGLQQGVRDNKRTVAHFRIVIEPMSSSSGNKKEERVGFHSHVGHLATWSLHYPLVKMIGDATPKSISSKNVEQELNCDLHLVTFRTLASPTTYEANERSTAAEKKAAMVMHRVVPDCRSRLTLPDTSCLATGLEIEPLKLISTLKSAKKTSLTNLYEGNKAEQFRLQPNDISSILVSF

In the case of O[C@H]1[C@H]2[C@H](O)CCCN2C[C@H]1O [Swainsonine, (1S,2R,8R,8aR)-trihydroxy-indolizidine], the IC50 ([1]; read-out: IC50 GMIIb, ref Nemčovičová et al. 20) is listed as 4.5 nM, the Ki ([1]; read-out: Ki Golgi-type mannosidase (GMIIb)) is listed as 3 nM and the “SI^a = IC50(LManII)/IC50(GMIIb)” value [2] is listed as 3. For the same molecule, the IC50 ([3]; read-out: IC50 AMAN-2, 2 mM pNP-Man, pH 6.0) was 4 nM and the “SI^b = IC50(JBMan)/IC50(AMAN-2)” value ([3]; selectivity index) was 20.

Reference: paper PMC7614232 (Organic & biomolecular chemistry, 2022)
